Source: US6462016

Legend:
[1] = target: maxadilan receptor of the rabbit (maxadilan-specific receptor in crude membrane fractions from rabbit brain and rabbit spleen) (rabbit); test: ^125I-Max saturation binding and Scatchard plot, rabbit brain crude membrane fraction
[2] = target: maxadilan receptor of the rabbit (maxadilan-specific receptor in crude membrane fractions from rabbit brain and rabbit spleen) (rabbit); test: ^125I-Max saturation binding and Scatchard plot, rabbit spleen crude membrane fraction
[3] = target: maxadilan receptor of cattle (in the crude membrane fraction from bovine brain) (cattle); test: ^125I-Max saturation binding and Scatchard plot, cattle brain crude membrane fraction
[4] = target: maxadilan receptor of the rat (in the crude membrane fraction from rat brain and on PC-12 cells) (rat); test: ^125I-Max saturation binding and Scatchard plot, rat brain crude membrane fraction
[5] = target: maxadilan receptor of the rabbit (maxadilan-specific receptor in crude membrane fractions from rabbit brain and rabbit spleen) (rabbit)
[6] = target: maxadilan receptor of the mouse (in the crude membrane fraction from mouse brain) (mouse); test: ^125I-Max saturation binding and Scatchard plot, mouse brain crude membrane fraction

| Substance | Bmax [1] | Bmax [2] | Bmax [3] | Bmax [4] | IC50 [5] | Bmax [6] |
| --- | --- | --- | --- | --- | --- | --- |
| maxadilan (recombinant represented by SEQ ID NO: 2, peptide fragment GSIL- bound to the N-terminal cysteine of natural maxadilan) (from UniProt P30659 24-86) (ligand) | 30 fmol/mg | 9 fmol/mg | 17 fmol/mg | 68 fmol/mg | 3.6 nM | 53 fmol/mg |
| variant maxadilan M65 (from UniProt P30659 24-86) (ligand) | – | – | – | – | 1.7 nM | – |
| variant maxadilan NSP (from UniProt P30659 29-86) (ligand) | – | – | – | – | 2 nM | – |
